Measured values reported in patent US20250326933A1, “SOLID COMPOSITION OF INDOCYANINE GREEN AND SODIUM FLUORESCEIN” (ICROM Srl, priority 2021, published 2025).

Test: Solubility in water evaluated by filtration of the solution on a syringe filter
Settings: without sodium iodide, dry isolated powder after crystallization, 20-25° C., 5 mg/ml or 2.5 mg/ml

For `CC1(C)C(/C=C/C=C/C=C/C=C2\N(CCCCS(=O)(=O)[O-])c3ccc4ccccc4c3C2(C)C)=[N+](CCCCS(=O)(=O)[O-])c2ccc3ccccc3c21.[Na+]` [compound of formula (IA), 1H-benz[e]indole, 2-[7-[1,3-dihydro-1,1-dimethyl-3-(4-sulfobutyl)-2H-benz[e]indol-2-ylidene]-1,3,5-heptatrienyl]-1,1-dimethyl-3-(4-sulfobutyl) hydroxide, inner salt, sodium salt], the Solubility in water was “not soluble”.
